Results on one molecule are retold here after patent US20240102994A1, “Method to Evaluate the Capability of Compounds on the Trapping of Proteins” (Eisbach Bio GmbH, priority 2020, published 2024).

Amino acid sequences for entries named in this document (tags omitted).
UniProt P09874, whole entry: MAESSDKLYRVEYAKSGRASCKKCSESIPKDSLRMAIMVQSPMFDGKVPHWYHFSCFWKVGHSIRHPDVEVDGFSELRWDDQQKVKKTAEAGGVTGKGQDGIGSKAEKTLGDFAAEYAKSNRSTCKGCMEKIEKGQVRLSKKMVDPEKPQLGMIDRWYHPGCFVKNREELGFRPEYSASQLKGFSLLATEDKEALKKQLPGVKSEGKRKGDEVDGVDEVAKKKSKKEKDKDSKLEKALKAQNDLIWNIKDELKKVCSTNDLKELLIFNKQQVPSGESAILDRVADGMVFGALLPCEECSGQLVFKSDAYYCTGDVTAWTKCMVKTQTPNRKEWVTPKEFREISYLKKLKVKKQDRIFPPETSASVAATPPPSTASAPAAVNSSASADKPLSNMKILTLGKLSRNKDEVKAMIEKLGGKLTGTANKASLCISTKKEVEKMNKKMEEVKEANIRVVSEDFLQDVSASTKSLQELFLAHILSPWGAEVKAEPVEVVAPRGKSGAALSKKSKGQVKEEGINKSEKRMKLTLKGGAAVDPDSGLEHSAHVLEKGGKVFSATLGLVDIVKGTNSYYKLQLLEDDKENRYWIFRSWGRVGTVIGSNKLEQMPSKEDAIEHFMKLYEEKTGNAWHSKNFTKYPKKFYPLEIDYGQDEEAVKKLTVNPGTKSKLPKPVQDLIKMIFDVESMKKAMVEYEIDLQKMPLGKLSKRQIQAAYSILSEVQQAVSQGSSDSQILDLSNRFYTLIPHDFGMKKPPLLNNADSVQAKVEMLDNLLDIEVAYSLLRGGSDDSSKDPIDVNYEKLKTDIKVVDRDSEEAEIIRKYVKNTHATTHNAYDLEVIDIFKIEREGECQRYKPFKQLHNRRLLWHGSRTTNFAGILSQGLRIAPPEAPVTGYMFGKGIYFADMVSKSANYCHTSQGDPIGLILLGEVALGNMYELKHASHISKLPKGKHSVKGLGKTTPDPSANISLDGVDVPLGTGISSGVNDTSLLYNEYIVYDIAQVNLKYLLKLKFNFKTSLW

“Also recorded” adds a separate entry of the source.

This test deals with T1, PARP1-GFP (Homo sapiens, UniProt P09874).
T1 construct: expressed in transfected cells; host or cells: U2OS
Description: Live-cell protein trapping assay: PARP1-GFP at laser micro-irradiation sites. The class given is cell-based. As to conditions: wild-type U2OS cells, 100 nM for 1 h, 355 nm laser, 30 minutes, compared to DMSO. The text has this: The disclosed method is used to analyze protein trapping induced by compounds. Live-cell imaging allows monitoring of the accumulation of at least one protein, e.g. which is detectably labelled, e.g. fluorophore-tagged, at the induced DNA lesions over time. Time0 (t0) hereby describes the timepoint before induction of DNA damage by irradiation. Thus, the relative enrichment of the at least one protein at DNA lesions within the imaged time frame (from t0 to tEND) can be quantified. This allows to the analysis of the recruitment and retention (protein trapping) kinetics of the at least one protein, e.g. which is detectably labelled, e.g. fluorophore-tagged, at DNA lesions. Suitably, as a first step the accumulation and/or residence time of a protein, e.g. which is detectably labelled, e.g. fluorophore-tagged, is measured in the absence of a test compound (control). The optimal imaging time is hereby determined by the time in which the majority of the protein has released from the damage site, indicated by the decrease of signal, e.g. fluorescent signal, at the DNA lesion (see FIG. 2A). Subsequently, the accumulation and/or residence time of the protein, e.g. which is detectably labelled, e.g. fluorophore-tagged, may be determined in the presence of at least one test compound. […]

Take `Cn1ncnc1[C@H]1c2n[nH]c(=O)c3cc(F)cc(c23)N[C@@H]1c1ccc(F)cc1` [talazoparib]: the “retention of PARP1 at DNA damage sites (PARP1-trapping)” value is listed as “enhanced retention; also recorded: most PARP1 retention”.
